Test results as given in patent US20220098203A1 (priority 2018, published 2022).

Protein sequences, listed by entry. Tags and fused reporters are not part of them.
UniProt P31153, whole entry: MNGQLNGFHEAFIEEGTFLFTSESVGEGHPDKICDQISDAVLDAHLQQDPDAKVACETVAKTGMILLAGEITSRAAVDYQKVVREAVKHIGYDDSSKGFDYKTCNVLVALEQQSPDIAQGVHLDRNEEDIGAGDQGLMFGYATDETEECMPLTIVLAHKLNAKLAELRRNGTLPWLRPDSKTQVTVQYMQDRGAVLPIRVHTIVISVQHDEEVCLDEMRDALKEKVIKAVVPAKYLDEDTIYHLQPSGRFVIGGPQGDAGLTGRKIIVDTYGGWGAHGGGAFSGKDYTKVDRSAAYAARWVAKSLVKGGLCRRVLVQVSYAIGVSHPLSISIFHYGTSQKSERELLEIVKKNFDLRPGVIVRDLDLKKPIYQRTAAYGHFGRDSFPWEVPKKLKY

Legend:
[1] = test system: SAM in HCT116 MTAP-deleted cells; test: Cellular assay of target engagement (SAM), LC-MS/MS; conditions: read-out: Cell 72 h SAM Inhibition (MTAP −/−), Table 5a
MAT2A homodimer = MAT2A homodimer (Homo sapiens, UniProt P31153); test: MAT2A biochemical assay (liberated phosphate, PiColorLock Gold); conditions: read-out: Enzyme Inhibition, Table 5a
HCT116 MTAP-/- = test: Inhibition of cellular proliferation (Cell Titer Glo), HCT116 MTAP-/-; conditions: read-out: 4 Day Relative Growth Inhibition (MTAP −/−), Table 5a, 4 days
HCT116 MTAP+/+ = test: Inhibition of cellular proliferation (Cell Titer Glo), HCT116 MTAP+/+; conditions: read-out: 4 Day Relative Growth Inhibition (MTAP +/+), Table 5a, 4 days

Row | SMILES | IC50 [1] [nM] | IC50 (MAT2A homodimer) [nM] | IC50 (HCT116 MTAP-/-) [nM] | IC50 (HCT116 MTAP+/+) [nM]
1 | Cn1cc2cc(N3Cc4ccc(NCC(F)(F)F)cc4N(c4ccc(Cl)cc4)C3=O)ccc2n1 | 100 to 1000 | 100 to 1000 | 100 to 1000 | > 1000
2 | CCOc1ccc2c(c1)N(c1ccc(Cl)cc1)C(=O)N(c1ccc3nn(C)cc3c1)C2 | 100 to 1000 | < 100 | 100 to 1000 | > 1000
